Test results as given in patent publication US20140309265A1, “MACROCYCLIC COMPOUNDS FOR INHIBITION OF INHIBITORS OF APOPTOSIS” (Ensemble Therapeutics, priority 2011, published 2014).

Amino acid sequences for entries named in this document (tags omitted). Residues count along the entry.
UniProt P98170, 124-240 C202A/C213G: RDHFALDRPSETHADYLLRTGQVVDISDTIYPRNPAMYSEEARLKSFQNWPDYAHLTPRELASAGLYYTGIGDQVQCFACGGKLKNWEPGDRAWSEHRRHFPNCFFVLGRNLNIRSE
UniProt P98170, 241-356: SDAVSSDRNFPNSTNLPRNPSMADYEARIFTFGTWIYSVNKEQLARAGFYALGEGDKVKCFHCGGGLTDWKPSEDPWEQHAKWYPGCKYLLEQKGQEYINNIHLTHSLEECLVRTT
UniProt P98170, 125-356 C202A/C213G: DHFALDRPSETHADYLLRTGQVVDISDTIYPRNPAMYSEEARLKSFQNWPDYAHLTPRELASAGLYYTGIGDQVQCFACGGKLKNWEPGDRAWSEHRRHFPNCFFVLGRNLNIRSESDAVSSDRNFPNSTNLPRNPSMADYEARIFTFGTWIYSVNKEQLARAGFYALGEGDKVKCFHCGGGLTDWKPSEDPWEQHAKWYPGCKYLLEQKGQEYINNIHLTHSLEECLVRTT

Key:
Type in all cases: binding
[1] = target: T1, XIAP His-BIR2 (124-240/C202A/C213G) (Homo sapiens, UniProt P98170, C202A/C213G); assay: XIAP-BIR2/SMAC Peptide AlphaScreen Assay; conditions: Table 2
T1 construct: additions of His-BIR2 (124-240/C202A/C213G), Biotinylated SMAC peptide
Protocol: A. XIAP-BIR2/SMAC Peptide AlphaScreen Assay Assays were performed in white, flat-bottom, 384-well ProxiPlates (Perkin Elmer). […] The reaction was incubated at room temperature for 60 minutes. After 60 minutes, 2.5 μL of Alphascreen detection reagent (Perkin Elmer) was added to the reaction mixture and incubated at room temperature in the dark for 120 minutes. The Alphascreen signal generated by the reaction was detected on the Envision Plate Reader. […] The final concentration of reagents in the assay was 50 nM His-BIR2 (124-240/C202A/C213G), 50 nM Biotinylated SMAC peptide, 4 μg/mL Alphascreen detection reagents, and 0.5% DMSO. Dose response curves were generated to determine the concentration required for inhibiting 50% of kinase activity (IC50). Compounds were dissolved at 10 mM in dimethylsulfoxide (DMSO) and evaluated at eleven concentrations. IC50 values were derived by non-linear regression analysis.

[2] = target: N-His-Tb-BIR3(241-356, XIAP) (Homo sapiens, UniProt P98170); assay: XIAP-BIR3 SMAC Peptide Fluorescence Polarization Assay (FPA)
[3] = target: T2, His-BIR2-3 (125-356, C202A/C213G, XIAP) (Homo sapiens, UniProt P98170, C202A/C213G); assay: XIAP-BIR2-3 Dimeric SMAC Peptide Homogeneous Time Resolved Fluorescence (HTRF) Assay; conditions: XIAP BIR2-3, HTRF, Table 4
T2 construct: additions of His-BIR2-3 (125-356, C202A/C213G, XIAP), fluorescein labeled dimeric SMAC peptide

His-BIR3 (241-356, XIAP) = target: T3, His-BIR3 (241-356, XIAP) (Homo sapiens, UniProt P98170); assay: XIAP-BIR3/SMAC Homogeneous Time Resolved Fluorescence (HTRF) Assay; conditions: Table 4
T3 construct: additions of His-BIR3 (241-356, XIAP), fluorescein labeled SMAC peptide

Row | IC50 [3] [nM] | IC50 (His-BIR3 (241-356, XIAP)) [nM] | Compound | IC50 [1] [nM] | IC50 [2] [nM]
1 |  |  | CN[C@@H](C)C(=O)N[C@H](C(=O)N1C[C@@H]2C[C@H]1C(=O)N[C@@H](Cc1ccc3ccccc3c1)C(=O)N[C@H](C(=O)O)Cc1ccc(cc1)OCc1cn(nn1)[C@H]1C[C@@H](C(=O)N[C@@H](Cc3ccc4ccccc4c3)C(=O)N[C@H](C(=O)O)Cc3ccc(cc3)OCc3cn2nn3)N(C(=O)[C@@H](NC(=O)[C@H](C)NC)C(C)(C)C)C1)C(C)(C)C [Compound 127] | < 2000 | < 50
2 |  |  | CN[C@@H](C)C(=O)N[C@H](C(=O)N1C[C@@H]2C[C@H]1C(=O)N[C@@H](Cc1ccc3ccccc3c1)C(=O)N[C@H](C(=O)O)Cc1ccc(cc1)OCc1cn(nn1)[C@H]1C[C@@H](C(=O)N[C@@H](Cc3ccc4ccccc4c3)C(=O)N[C@H](C(=O)O)Cc3ccc(cc3)OCc3cn2nn3)N(C(=O)[C@@H](NC(=O)[C@H](C)NC)C2CCCCC2)C1)C1CCCCC1 [Compound 128] | < 2000 | 50 to 100
3 | > 10 | 10 to 100 | CN[C@@H](C)C(=O)N[C@H](C(=O)N1C[C@@H]2C[C@H]1C(=O)N[C@@H](Cc1ccc3ccccc3c1)C(=O)N[C@@H](C(=O)O)Cc1ccc(cc1)OCc1cn(nn1)[C@H]1C[C@@H](C(=O)N[C@@H](Cc3ccc4ccccc4c3)C(=O)N[C@@H](C(=O)O)Cc3ccc(cc3)OCc3cn2nn3)N(C(=O)[C@@H](NC(=O)[C@H](C)NC)C(C)(C)C)C1)C(C)(C)C [Compound 1010] |  | 
